## Apparent affinities of Ab-14 variants for a coronavirus HR2 peptide

Antigen: PDVDLGDISGINAS, a 14-residue peptide of the SARS-CoV-2 spike HR2 region.

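This is the validation round: designs drawn from the data on random variants, tested in the same kind of assay. Their group label is 14H_En_HC (En: ensemble of fine-tuned language models; HC: hill climbing; a sequence that several methods proposed may carry one label only). AlphaSeq pools MATa yeast showing the antibodies with MATalpha yeast showing the peptide. Binding brings cells together so that they mate, and sequencing counts the barcode pairs among the diploids. The ratio of observed to expected reads was calibrated, replicate by replicate, on BCL2-family standards whose Kd was known from biolayer interferometry. There are six technical replicates.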

Each scFv is VH, a 15-residue (Gly4Ser)3 linker, VL, as in the parent Ab-14, and differs from it in the CDRs of the heavy chain only.
VH: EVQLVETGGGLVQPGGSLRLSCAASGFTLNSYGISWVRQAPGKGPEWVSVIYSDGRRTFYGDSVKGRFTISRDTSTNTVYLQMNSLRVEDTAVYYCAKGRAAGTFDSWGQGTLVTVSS
VL: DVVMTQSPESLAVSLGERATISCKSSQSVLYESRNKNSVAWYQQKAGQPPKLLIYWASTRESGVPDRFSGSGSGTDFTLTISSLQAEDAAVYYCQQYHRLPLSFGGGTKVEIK

Each variant is given by its three heavy chain CDRs, as the data file delimits them; those of the parent are GFTLNSYGIS, VIYSDGRRTFYGDSVK, GRAAGTFDS. Affinities are written as log10 Kd with Kd in nM; a lower number is a better binder. Averages over replicates are reported, and they cover detected replicates only. Where no diploid with the target was found in that replicate, the entry reads "nd": below detection, most likely a poor binder, though not proof of it. The authors' rule: three or more of the six replicates give a measured affinity, fewer mean a poor binder. Three control strains display no target. For all heavy chain designs, 1% of the pairings with them gave a signal, with a median of 2.08 and one signal in twenty below 0.84, so weak values seen in few replicates may be background. For each scFv, signals with the empty controls are counted beside the result. A sequence measured in both rounds can read differently, since the two assays cover different ranges. Of ten entries with the parent sequence, four were seen in most replicates (averages 0.34 to 2.37), three in one and three in none, so single entries are noisy.

The variant GFDLNEYGIS, VIYADGRRTFYTDSVK, GAEAGTFDQ gave -0.27, -0.58, -0.60, -0.82, -0.69, -0.45 (mean -0.57; controls 0 of 18).
The variant GFDLNEYGIS, VIYADGRRTFYADSVK, GNTAGTFLD gave 0.06, 0.06, -0.50, -0.82, -0.51, -0.52 (mean -0.37; controls 0 of 18).
The variant GFDLNEYGIS, VIYADGRRTFYADNVK, GQNAGTFDS gave -0.61, -0.69, -0.59, -0.75, -0.83, -0.51 (mean -0.67; controls 0 of 18).
The variant GFNLNEYGIS, VIYADGMRKFYADSVK, GNTAGTFDV gave -0.50, -1.16, -1.10, -0.84, -1.00, -0.42 (mean -0.84; controls 0 of 18).
The variant GFDLNEYGIS, VIYADGVRTAYLDSVK, GQLAGTFDT gave -0.48, -0.47, -0.99, -1.03, -1.04, -0.32 (mean -0.72; controls 0 of 18).
The variant GFDLNEYGIS, VIYADGHRTFYSDSVK, GQIAGTFDA gave -0.38, -0.74, -0.54, -0.46, -0.42, -0.36 (mean -0.48; controls 1 of 18).
The variant GFNLNEYGIS, VIYADGRRTFYADSVK, GQVAGTFIM gave 0.28, 1.06, 0.27, 0.52, 0.16, 0.74 (mean 0.51; controls 0 of 18).
The variant GFDLNEYGIS, VIYADGRRKFYADSVK, GQNAGTFDV gave 0.12, 0.82, 1.46, 0.28, 1.61, 0.80 (mean 0.85; controls 0 of 18).
The variant GFNLNEYGIS, VIYADGRRTFYADSVK, GQAAGTFDV gave -0.10, -0.52, -0.22, 0.22, 0.15, -0.12 (mean -0.10; controls 0 of 18).
The variant GFDINEYGIS, VIYADGMRTAYADSVK, GEAAGTFDS gave 0.64, 0.44, 0.25, 0.17, 0.10, 0.32 (mean 0.32; controls 0 of 18).
The variant GFDLNEYGIS, VIYADGMRTSYADSVK, GNNAGTFDQ gave -0.19, 0.37, 0.27, -0.31, -0.52, -0.38 (mean -0.13; controls 0 of 18).
The variant GFDLNEYGIS, VIYADGRRTAYLNSVK, GEAAGTFDV gave -0.32, -1.24, -0.25, -0.91, -1.76, -1.25 (mean -0.96; controls 0 of 18).
The variant GFDLNEYGIS, VIYADGRRTFYADSVK, GEIAGTFDA gave -0.60, -0.65, -0.66, -0.96, -0.79, -0.69 (mean -0.72; controls 0 of 18).
The variant GFDLNEYGIS, VIYADGRRTFYTDSVK, GNQAGTFDV gave -0.11, -0.45, -0.16, -0.39, 0.27, -0.10 (mean -0.16; controls 0 of 18).
The variant GFDLNEYGIS, VIYADGRRTFYTDSVK, GANAGTFDL gave -0.58, -0.45, -0.61, -0.75, -0.91, -0.55 (mean -0.64; controls 0 of 18).
The variant GFDLNEYGIS, VIYADGRRTMYVDSVK, GEAAGTFDQ gave nd, nd, nd, nd, nd, nd (controls 0 of 18).
The variant GFDLEEYGIS, VIYADGRRTFYADNVK, GENAGTFDI gave -0.31, -0.92, 0.20, -0.54, -0.41, -0.24 (mean -0.37; controls 0 of 18).
The variant GFDLNEYGIS, VIYADGVRTFYADSVK, GNEAGTFDM gave 0.33, -0.43, -0.29, -0.30, -0.12, -0.57 (mean -0.23; controls 0 of 18).
The variant GFDLNEYGIS, VIYADGRRTYYDDSVK, GQLAGTFDL gave -0.31, -0.42, -0.40, -0.15, -0.12, -0.07 (mean -0.25; controls 2 of 18).
The variant GFDLNEYGIS, VIYADGRRTFYKDSVK, GGNGGTFDV gave 0.27, 0.33, 0.24, -0.57, 0.59, 0.07 (mean 0.16; controls 0 of 18).
The variant GFDLNEYGIS, VIYADGRRTFYADSVK, GQLAGTFDV gave -0.82, -0.91, -0.84, -1.03, -0.98, -0.87 (mean -0.91; controls 0 of 18).
The variant GFDLEDYGIS, VIYADGRRTQYADSVK, GEAAGTFDL gave nd, -0.42, 0.39, -0.77, -0.51, 0.38 (mean -0.19; controls 0 of 18).
The variant GFDLNEYGIS, VIYADGIRTFYADSVK, GNVAGTFDV gave -0.24, -0.48, -0.43, -0.55, -0.49, -0.52 (mean -0.45; controls 0 of 18).
The variant GFDLNEYGIS, VIYADGRRTQYADSVK, GEQAGTFDV gave 0.28, 0.49, 0.28, 0.51, 0.54, 0.28 (mean 0.40; controls 2 of 18).
The variant GFDLNEYGIS, VIYADGMRTFYTDSVK, GEVAGTFDQ gave -0.63, -0.93, -0.94, -0.58, -1.12, -0.58 (mean -0.80; controls 0 of 18).
The variant GFDLNEYGIS, VIYADGRRTAYIDSVK, GEAAGTFDN gave -0.57, -0.46, -0.56, -0.06, -0.24, -0.01 (mean -0.32; controls 0 of 18).
The variant GFDLNEYGIS, VIYADGQRTAYADSVK, GKEAGTFDS gave -0.24, -0.42, -0.58, -0.37, -0.40, -0.37 (mean -0.40; controls 0 of 18).
The variant GFNLEDYGIS, VIYADGRRTSYVDSVK, GKVAGTFDV gave 0.15, -0.35, -0.04, -0.61, -0.27, -0.22 (mean -0.22; controls 0 of 18).
The variant GFDLNEYGIS, VIYADGRRTSYIDSVK, GEAAGTFDM gave 0.20, -0.33, -0.56, -0.29, -0.26, -0.01 (mean -0.21; controls 0 of 18).
The variant GFDLNEYGIS, VIYADGRRTFYADSVK, GNAAGTFNQ gave 0.03, -0.25, -0.31, -0.64, -0.23, -0.57 (mean -0.33; controls 0 of 18).
The variant GFDIDEYGIS, VIYADGRRTFYADSVK, GTNAGTFDV gave -0.28, -0.27, -0.34, -0.39, -0.37, -0.23 (mean -0.31; controls 1 of 18).
The variant GFDLNEYGIS, VIYADGRRTAYLDSVK, GEAAGTFDN gave -1.31, -1.07, -0.63, -0.66, -1.17, -0.92 (mean -0.96; controls 0 of 18).
The variant GFDLNEYGIS, VIYADGRRTFYADSVK, GEIAGTFNV gave -0.49, -0.83, -0.59, -1.29, -1.17, -0.63 (mean -0.83; controls 0 of 18).
The variant GFNLEDYGIS, VIYADGKRTFYVDSVK, GKVAGTFDV gave -0.35, -0.62, -0.87, -0.93, -0.54, -0.47 (mean -0.63; controls 0 of 18).
The variant GFDLNEYGIS, VIYADGRRTFYADSVK, GENAGTFDA gave -0.35, -0.17, -0.45, -0.52, -0.44, -0.15 (mean -0.35; controls 0 of 18).

Repeated from above, the 5 best binders with a signal in all replicates:

| CDR-H1 | CDR-H2 | CDR-H3 | replicates, log10 nM | mean log10 Kd (nM) | empty controls |
|---|---|---|---|---|---|
| GFDLNEYGIS | VIYADGRRTAYLDSVK | GEAAGTFDN | -1.31, -1.07, -0.63, -0.66, -1.17, -0.92 | -0.96 | 0/18 |
| GFDLNEYGIS | VIYADGRRTAYLNSVK | GEAAGTFDV | -0.32, -1.24, -0.25, -0.91, -1.76, -1.25 | -0.96 | 0/18 |
| GFDLNEYGIS | VIYADGRRTFYADSVK | GQLAGTFDV | -0.82, -0.91, -0.84, -1.03, -0.98, -0.87 | -0.91 | 0/18 |
| GFNLNEYGIS | VIYADGMRKFYADSVK | GNTAGTFDV | -0.50, -1.16, -1.10, -0.84, -1.00, -0.42 | -0.84 | 0/18 |
| GFDLNEYGIS | VIYADGRRTFYADSVK | GEIAGTFNV | -0.49, -0.83, -0.59, -1.29, -1.17, -0.63 | -0.83 | 0/18 |

Reference: Li et al. 2023, doi:10.1038/s41467-023-39022-2. File: FLAb, binding data.